Series [1] has as its system GBM. The following applies: chronic administration; cited from earlier work.
The test system of series [2] is GBM43-Luc cells. The experiment in a line: Orthotopic GBM43 (Luc) xenograft model. The format is in vivo, NSG mice. Conditions: CQ systemic, NK cells intracranial. How it is done:
Additionally, orthotopic GBM xenografts were generated using NSG mice as previously described. Briefly, on day 0, the GBM43 (Luc) cells (1×10^5) were stereotactically implanted into the right forebrain through a digitalized stereotactic delivery system. […] CD73.mCAR-pNK cells were administered once a week for three weeks. Tumor volumes were monitored and recorded using the Spectral Ami Optical imaging system. Body weights of the mice were also recorded during the treatment period. At the end of the treatment, the mice were sacrificed and whole brain tissues from each mouse were harvested for adenosine measurement and IHC/IF analyses.
Immunohistochemistry (IHC) and immunofluorescence (IF) staining were carried out at the Histology Research Laboratory at the Purdue University College of Veterinary Medicine (West Lafayette, Ind.). […]
For intracranial GBM xenografts, the NK cells in tumors were detected through the staining using human NKp46/NCR1 antibody. CCL5 and CXCL10 expression in the tumors were detected through the staining using human CCL5/RANTES antibody and CXCL10 antibody, respectively. CD73 expression in the tumors was detected through the staining using human CD73 antibody.
In addition to the foregoing, intratumoral adenosine concentrations were also assessed. […] Adenosine concentrations were determined using an Adenosine Assay Kit according to the manufacturer's directions. […]

Data on 1 substance can be found in patent publication US20220362299A1, “ENGINEERED NATURAL KILLER CELLS AND METHODS FOR USING THE SAME IN IMMUNOTHERAPY AND AUTOPHAGY INHIBITON TECHNIQUES” (Purdue Research Foundation, priority 2019, published 2022).

Turning to Chloroquine diphosphate salt [CQ], in series [1], the “clinical safety and tolerability” value was “clinically safe and well-tolerated”. For the same substance, the “CQ-dependent toxicity in treated groups” value in series [2] is listed as “no observable CQ-dependent toxicity”.
